Source: ChEMBL document CHEMBL3124839, “Polyamine transport inhibitors: design, synthesis, and combination therapies with difluoromethylornithine” (J Med Chem, 2014)

Experiments:
Format in all cases: cell-based
Homo sapiens [1] = organism: Homo sapiens; experiment: Inhibition of polyamine transport system in human L3.6PL cells assessed as intracellular spermidine to spermine molar ratio at 7 uM after 48 hrs by HPLC analysis in presence of aminoguanidine relative to control
Homo sapiens [2] = organism: Homo sapiens; experiment: Inhibition of polyamine transport system in human L3.6PL cells assessed as intracellular spermidine to spermine molar ratio at 7 uM after 48 hrs by HPLC analysis in presence of spermidine and aminoguanidine relative to control
Homo sapiens [3] = organism: Homo sapiens; experiment: Inhibition of polyamine transport system in DFMO-treated human L3.6PL cells assessed as intracellular spermidine to spermine molar ratio at 7 uM after 48 hrs by HPLC analysis in presence of spermidine and aminoguanidine relative to control

In the case of CNCCCCNCCCCNCc1cc(CNCCCCNCCCCNC)cc(CNCCCCNCCCCNC)c1.Cl, the Ratio (Homo sapiens [1]) is reported as 1.5, the Ratio (Homo sapiens [2]) is reported as 1.5 and the Ratio (Homo sapiens [3]) is reported as 0.23.
